Columns and labels:
Nitric oxide synthase 3 = molecular target: T1, Nitric oxide synthase 3 (Mus musculus, UniProt P70313); test: Inhibition of recombinant mouse eNOS overexpressed in Escherichia coli assessed as inhibition constant
T1 sequence (P70313 whole entry): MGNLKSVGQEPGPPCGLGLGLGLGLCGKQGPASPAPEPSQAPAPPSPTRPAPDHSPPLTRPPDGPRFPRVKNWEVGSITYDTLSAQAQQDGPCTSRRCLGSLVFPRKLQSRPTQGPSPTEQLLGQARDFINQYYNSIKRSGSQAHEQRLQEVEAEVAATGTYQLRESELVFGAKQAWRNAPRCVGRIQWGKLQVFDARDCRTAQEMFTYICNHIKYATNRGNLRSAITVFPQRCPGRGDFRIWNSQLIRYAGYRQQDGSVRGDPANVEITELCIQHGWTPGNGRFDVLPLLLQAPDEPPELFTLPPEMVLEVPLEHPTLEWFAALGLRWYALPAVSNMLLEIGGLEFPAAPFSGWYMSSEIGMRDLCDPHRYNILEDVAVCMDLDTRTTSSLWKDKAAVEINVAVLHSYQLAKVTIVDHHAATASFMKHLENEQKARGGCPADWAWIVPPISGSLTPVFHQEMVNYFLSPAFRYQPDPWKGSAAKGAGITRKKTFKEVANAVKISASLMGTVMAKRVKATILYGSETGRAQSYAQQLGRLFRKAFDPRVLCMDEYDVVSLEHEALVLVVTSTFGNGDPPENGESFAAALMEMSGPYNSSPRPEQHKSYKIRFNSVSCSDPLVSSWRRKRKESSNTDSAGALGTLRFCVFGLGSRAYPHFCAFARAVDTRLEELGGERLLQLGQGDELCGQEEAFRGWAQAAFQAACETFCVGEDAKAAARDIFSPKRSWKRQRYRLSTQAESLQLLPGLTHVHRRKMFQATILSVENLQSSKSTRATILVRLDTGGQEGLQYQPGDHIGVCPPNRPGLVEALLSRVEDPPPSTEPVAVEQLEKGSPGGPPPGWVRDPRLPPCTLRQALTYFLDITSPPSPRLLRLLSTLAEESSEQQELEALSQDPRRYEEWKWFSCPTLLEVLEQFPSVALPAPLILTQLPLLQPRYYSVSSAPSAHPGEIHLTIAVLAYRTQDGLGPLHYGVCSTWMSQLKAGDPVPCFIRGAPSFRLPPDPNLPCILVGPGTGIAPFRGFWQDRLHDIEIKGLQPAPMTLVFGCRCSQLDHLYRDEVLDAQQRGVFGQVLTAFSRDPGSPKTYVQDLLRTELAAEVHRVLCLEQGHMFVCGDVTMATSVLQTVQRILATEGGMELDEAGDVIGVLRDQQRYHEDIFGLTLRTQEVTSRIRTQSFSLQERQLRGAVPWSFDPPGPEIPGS

Protein sequences, listed by entry. Tags and fused reporters are not part of them.
UniProt P29476, whole entry: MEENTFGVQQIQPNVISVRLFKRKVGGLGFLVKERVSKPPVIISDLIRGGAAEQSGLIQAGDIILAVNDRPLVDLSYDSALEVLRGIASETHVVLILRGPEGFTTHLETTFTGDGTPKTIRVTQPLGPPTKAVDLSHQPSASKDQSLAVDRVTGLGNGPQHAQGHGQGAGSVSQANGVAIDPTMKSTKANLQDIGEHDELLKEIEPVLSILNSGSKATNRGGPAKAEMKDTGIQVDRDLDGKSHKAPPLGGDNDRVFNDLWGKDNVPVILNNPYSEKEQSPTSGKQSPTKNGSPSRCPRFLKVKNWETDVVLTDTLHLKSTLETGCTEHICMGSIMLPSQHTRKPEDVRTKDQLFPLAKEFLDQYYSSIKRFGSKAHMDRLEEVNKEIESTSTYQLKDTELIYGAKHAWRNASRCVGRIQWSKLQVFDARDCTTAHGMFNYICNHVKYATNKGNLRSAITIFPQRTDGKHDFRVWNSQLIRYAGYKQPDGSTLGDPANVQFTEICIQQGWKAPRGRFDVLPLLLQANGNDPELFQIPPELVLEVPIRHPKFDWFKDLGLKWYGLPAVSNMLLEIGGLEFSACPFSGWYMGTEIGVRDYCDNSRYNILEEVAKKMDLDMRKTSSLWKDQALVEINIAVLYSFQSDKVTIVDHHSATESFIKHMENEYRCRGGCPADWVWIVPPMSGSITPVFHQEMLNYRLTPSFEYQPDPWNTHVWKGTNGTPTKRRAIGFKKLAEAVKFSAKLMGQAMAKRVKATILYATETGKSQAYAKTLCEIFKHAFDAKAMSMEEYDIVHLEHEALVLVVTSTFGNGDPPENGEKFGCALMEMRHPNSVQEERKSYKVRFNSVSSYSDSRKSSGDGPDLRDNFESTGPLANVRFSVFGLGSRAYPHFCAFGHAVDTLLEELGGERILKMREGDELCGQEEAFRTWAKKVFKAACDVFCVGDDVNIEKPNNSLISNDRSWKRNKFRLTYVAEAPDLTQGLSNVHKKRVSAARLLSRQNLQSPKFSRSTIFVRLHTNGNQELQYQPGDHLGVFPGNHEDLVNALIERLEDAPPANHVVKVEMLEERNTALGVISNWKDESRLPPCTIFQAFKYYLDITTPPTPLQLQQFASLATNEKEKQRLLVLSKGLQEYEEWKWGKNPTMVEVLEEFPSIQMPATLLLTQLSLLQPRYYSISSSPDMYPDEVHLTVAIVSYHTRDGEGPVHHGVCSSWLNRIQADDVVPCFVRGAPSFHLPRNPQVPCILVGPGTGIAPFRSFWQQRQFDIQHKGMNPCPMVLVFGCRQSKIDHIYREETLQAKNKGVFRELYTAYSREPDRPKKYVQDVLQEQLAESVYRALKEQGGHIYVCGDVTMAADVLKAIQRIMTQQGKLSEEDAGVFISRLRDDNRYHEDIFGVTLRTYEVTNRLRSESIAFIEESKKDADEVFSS
UniProt P29475, whole entry: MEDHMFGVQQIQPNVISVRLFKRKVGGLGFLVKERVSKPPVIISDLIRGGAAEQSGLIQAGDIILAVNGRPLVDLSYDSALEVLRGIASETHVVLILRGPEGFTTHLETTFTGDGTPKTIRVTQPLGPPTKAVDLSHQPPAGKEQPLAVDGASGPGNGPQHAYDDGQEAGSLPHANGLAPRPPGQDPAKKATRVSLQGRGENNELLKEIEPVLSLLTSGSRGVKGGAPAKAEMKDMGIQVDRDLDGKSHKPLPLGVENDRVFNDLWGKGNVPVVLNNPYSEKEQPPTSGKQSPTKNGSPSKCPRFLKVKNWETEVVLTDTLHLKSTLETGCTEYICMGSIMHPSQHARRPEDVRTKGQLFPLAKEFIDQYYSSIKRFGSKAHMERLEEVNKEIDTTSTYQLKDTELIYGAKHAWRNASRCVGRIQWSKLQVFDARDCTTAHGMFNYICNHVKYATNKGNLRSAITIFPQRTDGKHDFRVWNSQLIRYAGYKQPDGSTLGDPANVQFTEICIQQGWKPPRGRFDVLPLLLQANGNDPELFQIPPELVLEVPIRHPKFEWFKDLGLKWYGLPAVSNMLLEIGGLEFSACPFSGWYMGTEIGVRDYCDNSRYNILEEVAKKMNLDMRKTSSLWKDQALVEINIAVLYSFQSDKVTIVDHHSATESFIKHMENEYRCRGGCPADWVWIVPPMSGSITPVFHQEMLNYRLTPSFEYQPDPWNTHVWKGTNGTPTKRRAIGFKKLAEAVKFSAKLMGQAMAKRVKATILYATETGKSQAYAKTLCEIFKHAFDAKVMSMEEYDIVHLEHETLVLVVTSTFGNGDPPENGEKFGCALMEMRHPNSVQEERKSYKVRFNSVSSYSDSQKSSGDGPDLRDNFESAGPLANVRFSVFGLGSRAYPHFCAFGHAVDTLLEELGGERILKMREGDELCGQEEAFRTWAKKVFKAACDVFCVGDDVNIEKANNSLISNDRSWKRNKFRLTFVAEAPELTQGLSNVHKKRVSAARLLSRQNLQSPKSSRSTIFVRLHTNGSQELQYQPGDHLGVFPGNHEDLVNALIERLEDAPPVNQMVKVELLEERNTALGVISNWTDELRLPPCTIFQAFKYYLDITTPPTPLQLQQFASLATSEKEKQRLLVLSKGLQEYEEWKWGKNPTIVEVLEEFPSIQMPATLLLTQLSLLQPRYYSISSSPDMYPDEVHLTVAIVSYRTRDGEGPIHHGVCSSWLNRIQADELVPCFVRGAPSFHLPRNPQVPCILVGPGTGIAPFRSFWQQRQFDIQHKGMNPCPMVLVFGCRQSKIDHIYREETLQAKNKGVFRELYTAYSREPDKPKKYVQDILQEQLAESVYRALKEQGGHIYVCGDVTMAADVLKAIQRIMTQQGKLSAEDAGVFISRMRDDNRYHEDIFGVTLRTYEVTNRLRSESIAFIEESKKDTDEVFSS

Nitric oxide synthase 1 [1] = molecular target: Nitric oxide synthase 1 (Rattus norvegicus, UniProt P29476); test: Inhibition of rat nNOS
[2] = molecular target: T2, Nitric oxide synthase, inducible (Mus musculus, UniProt P29477); test: Inhibition of mouse iNOS overexpressed in Escherichia coli assessed as inhibition constant
T2 sequence (P29477 whole entry): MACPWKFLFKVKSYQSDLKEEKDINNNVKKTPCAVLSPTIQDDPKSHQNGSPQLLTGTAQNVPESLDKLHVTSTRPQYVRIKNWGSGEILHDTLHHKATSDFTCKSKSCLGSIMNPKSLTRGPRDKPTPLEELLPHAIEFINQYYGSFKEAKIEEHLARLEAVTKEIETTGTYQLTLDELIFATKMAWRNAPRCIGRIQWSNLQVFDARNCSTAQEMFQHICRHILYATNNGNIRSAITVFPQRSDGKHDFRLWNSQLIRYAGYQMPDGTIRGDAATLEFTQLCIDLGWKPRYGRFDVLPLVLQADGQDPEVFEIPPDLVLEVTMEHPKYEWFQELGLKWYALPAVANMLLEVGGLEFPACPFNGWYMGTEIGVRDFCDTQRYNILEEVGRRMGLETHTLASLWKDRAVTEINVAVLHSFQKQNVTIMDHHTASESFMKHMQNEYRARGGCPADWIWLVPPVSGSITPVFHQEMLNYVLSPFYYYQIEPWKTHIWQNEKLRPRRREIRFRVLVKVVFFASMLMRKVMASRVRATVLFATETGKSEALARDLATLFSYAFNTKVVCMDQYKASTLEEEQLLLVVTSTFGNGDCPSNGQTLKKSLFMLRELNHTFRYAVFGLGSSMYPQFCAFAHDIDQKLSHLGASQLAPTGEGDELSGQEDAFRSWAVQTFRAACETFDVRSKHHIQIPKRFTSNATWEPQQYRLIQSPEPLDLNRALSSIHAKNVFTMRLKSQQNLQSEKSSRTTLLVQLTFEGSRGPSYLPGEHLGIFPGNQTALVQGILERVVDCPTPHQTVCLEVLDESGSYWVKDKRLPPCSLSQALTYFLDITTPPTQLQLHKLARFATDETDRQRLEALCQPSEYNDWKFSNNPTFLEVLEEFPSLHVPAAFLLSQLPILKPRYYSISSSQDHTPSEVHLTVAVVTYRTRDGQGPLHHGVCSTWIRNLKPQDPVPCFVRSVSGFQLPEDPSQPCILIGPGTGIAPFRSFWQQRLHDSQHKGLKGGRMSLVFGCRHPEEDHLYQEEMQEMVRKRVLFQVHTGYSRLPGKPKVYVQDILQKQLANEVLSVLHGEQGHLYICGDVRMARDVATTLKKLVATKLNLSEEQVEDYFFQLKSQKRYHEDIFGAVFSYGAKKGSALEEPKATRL

Nitric oxide synthase 1 [3] = molecular target: Nitric oxide synthase 1 (Homo sapiens, UniProt P29475); test: Inhibition of human nNOS assessed as inhibition constant

Row | Structure (SMILES) | Ki (Nitric oxide synthase 3) [µM] | IC50 (Nitric oxide synthase 1 [1]) [µM] | Ki [2] [µM] | Ki (Nitric oxide synthase 1 [3]) [µM]
1 | Cc1cc(N)nc(C[C@H]2CNC[C@H]2NCCNCCc2cccc(F)c2)c1 | 26.4 |  |  | 
2 | Cc1cc(N)nc(C[C@@H]2CNC[C@@H]2NCCNCCc2cccc(F)c2)c1 | 20.3 |  |  | 
3 | CC(=N)NCCC[C@H](N)C(=O)O [L-NIO] |  | 0.8 | 13.7 | 13.7

Reference: ChEMBL document CHEMBL5360519, “Chemical similarities and differences among inhibitors of nitric oxide synthase, arginase and dimethylarginine dimethylaminohydrolase-1: Implications for the design of novel enzyme inhibitors modulating the nitric oxide pathway” (Bioorg Med Chem, 2022)
